{"source": "patent US20160169914A1", "about": "“KINETICS BIOMARKERS FOR NEURODEGENERATION” (KineMed, Inc., priority 2014, published 2016)", "origin": "cited, not measured here", "system": "SOD1-G93A transgenic mouse", "settings": "SOD1-G93A TGN mouse; cited from earlier work"}
{"smiles": "Nc1nc2ccc(OC(F)(F)F)cc2s1", "note": "[Riluzole]", "values": [{"measurement": "delay of disease onset and mortality", "result": "20 to 30", "unit": "days"}]}
